# Source: ChEMBL document CHEMBL1132372, “The opioid mu agonist/delta antagonist DIPP-NH(2)[Psi] produces a potent analgesic effect, no physical dependence, and less tolerance than morphine in rats” (J Med Chem, 1999)
# What was measured:
# Mus musculus [1] = species: Mus musculus; test: Compound was evaluated for its antagonist potency against delta agonist […] by MVD assay(mouse vas deferens).
# Mus musculus [2] = species: Mus musculus; test: Compound was evaluated for its antagonist potency against delta agonist deltorphin I, by MVD assay(mouse vas deferens).
compound,measurement,setting,value
Cc1cc(O)cc(C)c1C[C@H](N)C(=O)N1Cc2ccccc2C[C@H]1C(=O)N[C@@H](Cc1ccccc1)C(=O)N[C@@H](Cc1ccccc1)C(N)=O,Ke,Mus musculus [1],0.209 nM
same,Ke,Mus musculus [2],0.26 nM
